Earlier results, collected in US20190201327A1, “TOPICAL APPLICATIONS OF WITHAFERIN A” (AMPERSAND BIOPHARMACEUTICALS, INC., priority 2017, published 2019).

Tests used:
[1] = tested on: DMBA-induced oral carcinogenesis; conditions: hamsters
human colon cancer = conditions: mouse, in vivo
human prostate cancer = conditions: mouse, in vivo
human breast cancer = conditions: nude mice
osteoporotic bone = conditions: at about 10 mg/kg/day
[2] = tested on: pancreatic cancer cells xenograft tumor; conditions: mouse, in vivo
[3] = tested on: mouse melanoma tumor cell; conditions: in vivo
[4] = tested on: medullary thyroid cancer cells xenograft tumor; conditions: nude mice
Ehrich ascites tumor = conditions: administration of WFA

SMILES: CC1=C(CO)C(=O)O[C@@H]([C@@H](C)[C@H]2CC[C@H]3[C@@H]4C[C@H]5O[C@]56[C@@H](O)C=CC(=O)[C@]6(C)[C@H]4CC[C@]23C)C1 [WFA, Withaferin A]
- DMBA-induced oral carcinogenesis [1]: Suppressed
- growth of human colon cancer (human colon cancer): inhibited the growth
- growth of human prostate cancer (human prostate cancer): reduced the growth
- growth of human breast cancer (human breast cancer): inhibited the growth
- effect on osteoporotic bone (osteoporotic bone): exerts an anabolic effect on osteoporotic bone
- growth of pancreatic cancer cells xenograft tumor [2]: inhibited the growth
- mouse melanoma tumor cell growth [3]: suppress
- tumor growth and metastasis [4]: significant inhibition of tumor growth and metastasis
- growth of Ehrich ascites tumor (Ehrich ascites tumor): reduced the growth
